Data published in paper PMC5310672, “Crizotinib inhibits hyperpolarization-activated cyclic nucleotide-gated channel 4 activity” (Cardio-oncology, 2017).

The chains behind the UniProt entries cited, without tags or fusion partners. Where a name states a change or a piece, a line headed by the entry shows the natural chain unless it says otherwise.
UniProt Q9Y3Q4: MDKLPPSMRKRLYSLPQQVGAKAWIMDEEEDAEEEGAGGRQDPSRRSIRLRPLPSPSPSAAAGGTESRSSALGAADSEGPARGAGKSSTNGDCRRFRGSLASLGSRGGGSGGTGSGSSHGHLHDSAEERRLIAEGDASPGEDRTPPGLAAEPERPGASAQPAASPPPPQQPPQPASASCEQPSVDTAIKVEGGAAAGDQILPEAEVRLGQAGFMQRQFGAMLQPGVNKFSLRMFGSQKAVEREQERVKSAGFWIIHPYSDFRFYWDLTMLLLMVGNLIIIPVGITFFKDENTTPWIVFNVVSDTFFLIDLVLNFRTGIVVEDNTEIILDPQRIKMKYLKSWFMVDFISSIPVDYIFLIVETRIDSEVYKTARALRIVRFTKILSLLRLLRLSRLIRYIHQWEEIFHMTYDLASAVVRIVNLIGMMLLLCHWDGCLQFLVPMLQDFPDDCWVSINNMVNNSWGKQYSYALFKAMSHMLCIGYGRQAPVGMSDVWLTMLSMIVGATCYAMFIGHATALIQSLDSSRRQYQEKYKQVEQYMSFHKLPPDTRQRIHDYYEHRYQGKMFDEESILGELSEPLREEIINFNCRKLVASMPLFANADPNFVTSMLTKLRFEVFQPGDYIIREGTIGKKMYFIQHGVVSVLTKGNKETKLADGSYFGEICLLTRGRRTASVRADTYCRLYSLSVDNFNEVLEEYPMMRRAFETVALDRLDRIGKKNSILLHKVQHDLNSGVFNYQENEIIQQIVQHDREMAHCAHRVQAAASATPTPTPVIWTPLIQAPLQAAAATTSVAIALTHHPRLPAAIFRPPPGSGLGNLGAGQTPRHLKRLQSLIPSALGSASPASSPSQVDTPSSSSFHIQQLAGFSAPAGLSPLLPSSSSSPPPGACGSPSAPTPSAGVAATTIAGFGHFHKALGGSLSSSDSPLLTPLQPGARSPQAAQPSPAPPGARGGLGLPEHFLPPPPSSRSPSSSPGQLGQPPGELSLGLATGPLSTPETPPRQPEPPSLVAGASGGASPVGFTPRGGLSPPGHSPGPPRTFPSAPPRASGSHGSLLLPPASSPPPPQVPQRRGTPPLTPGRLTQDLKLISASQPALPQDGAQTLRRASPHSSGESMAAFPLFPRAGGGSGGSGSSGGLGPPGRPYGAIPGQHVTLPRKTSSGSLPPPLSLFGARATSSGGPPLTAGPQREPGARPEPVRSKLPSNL

Biological target: hyperpolarization-activated cyclic nucleotide-gated channel 4 (HCN4) (Homo sapiens, UniProt Q9Y3Q4)
Experiment: cell-based

C[C@@H](Oc1cc(-c2cnn(C3CCNCC3)c2)cnc1N)c1c(Cl)ccc(F)c1Cl [crizotinib]
IC50: 1400 ± 300 nM
